For one molecule, Ratio EC50, Ki and EC50 results are on record in ChEMBL document CHEMBL2169767 (J Med Chem, 2012).

By UniProt entry, the sequences of proteins in these tests, tags left out.
UniProt Q92847, whole entry: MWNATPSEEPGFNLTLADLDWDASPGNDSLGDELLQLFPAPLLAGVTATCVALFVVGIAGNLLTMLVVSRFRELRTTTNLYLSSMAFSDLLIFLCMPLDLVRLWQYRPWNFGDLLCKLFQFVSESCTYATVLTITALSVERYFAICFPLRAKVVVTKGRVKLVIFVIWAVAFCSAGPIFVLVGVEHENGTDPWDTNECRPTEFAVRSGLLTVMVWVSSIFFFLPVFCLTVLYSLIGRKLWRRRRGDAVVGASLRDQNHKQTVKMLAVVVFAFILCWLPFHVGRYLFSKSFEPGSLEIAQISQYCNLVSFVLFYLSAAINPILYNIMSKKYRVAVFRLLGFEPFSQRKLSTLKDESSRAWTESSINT

Structures are written as SMILES. Bounds are passed on as bounds.

In assay [1] the target is T1, Growth hormone secretagogue receptor type 1 (Homo sapiens, UniProt Q92847). Description: Ratio of EC50 of ghrelin to EC50 of compound at human ghrelin receptor expressed in COS 7 cells using [2-3H]myo-inositol by inositol triphosphate turnover assay. Type of assay: functional, cell-based.
Assay [2] has as its target T1, Growth hormone secretagogue receptor type 1. Description: Displacement of [125I]-His-ghrelin from human ghrelin receptor expressed in COS7 cells incubated for 75 mins by scintillation counting based assay. Format: cell-based, COS-7. On the technique in general: Loss of bound radioactivity is the signal in a displacement assay; it reports binding, not function.
For assay [3] the target is unchanged. Description: Activation of human ghrelin receptor expressed in COS 7 cells using [2-3H]myo-inositol by inositol triphosphate turnover assay. Format: functional, cell-based. The procedure, abridged:
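Stimulated with seven to nine peptide concentrations, stopped by aspirating medium. Lysate supernatant purified on anion-exchange resin. Emax = difference between constitutive activity and activity at maximal peptide effect; EC50 = half-maximal concentration.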

By Ki is commonly meant a measure of affinity in units of concentration, obtained from inhibition or displacement. Lower therefore signals higher affinity. What is called EC50 is the midpoint of the concentration-response curve. Higher therefore signals weaker potency. Take `CC(C)C[C@H](NC(=O)[C@H](CC(C)C)NC(=O)[C@@H](Cc1csc2ccccc12)NC(=O)[C@H](Cc1ccccc1)NC(=O)[C@@H](Cc1c[nH]c2ccccc12)NC(=O)[C@@H](N)CCCCN)C(N)=O`: the Ratio EC50 in assay [1] was over 700. This molecule displayed a Ki in assay [2] of 31.3 nM. Also, the EC50 in assay [3] is over 1000 nM.
